System: renal allografts in cynomolgus monkeys
Test: Renal allografts in cynomolgus monkeys with short course of high dose cyclosporine
Format: in vivo, cynomolgus monkey
Conditions: administered on day 8, 9, or 10 of cyclosporine A treatment
Excerpt: “Short course of a help reducing agent”, as used herein, means a transitory non-chronic course of treatment. The treatment should begin before or at about the time of transplantation of the graft. Alternatively, the treatment can begin before or at about the time of the recipient's first exposure to donor antigens. Optimally, the treatment lasts for a time which is approximately equal to or less than the period required for mature T cells of the recipient species to initiate rejection of an antigen after first being stimulated by the antigen. The duration of the treatment can be extended to a time approximately equal to or less than two, three, four, five, or ten times, the period required for a mature T cell of the recipient species to initiate rejection of an antigen after first being stimulated by the antigen. The duration will usually be at least equal to the time required for mature T cells of the recipient species to initiate rejection of an antigen after first being stimulated by the antigen.
This work is discussed in more detail below.
Animals. Cynomolgus monkeys were purchased from Charles River Research Laboratories. The animals were quarantined, tested for a full battery of pathogens, and then housed in environmentally controlled rooms in strict conformance to the N.I.H. Guide for Care and use of Laboratory Animals, in an AAALAC accredited facility.
Typing. […]

**Q.** How did the “effect on transplanted tissue” value turn out when “IL-2: cytokine administered during cyclosporine A treatment” was run?
**A.** rejection of the transplanted tissue

Source: patent US6911220B1, “Allogeneic and xenogeneic transplantation” (The General Hospital Corporation, priority 1992, dated 2005)
